Molecular target: T1, Histone deacetylase 8 (Homo sapiens, UniProt Q9BY41)
T1 sequence (Q9BY41 whole entry): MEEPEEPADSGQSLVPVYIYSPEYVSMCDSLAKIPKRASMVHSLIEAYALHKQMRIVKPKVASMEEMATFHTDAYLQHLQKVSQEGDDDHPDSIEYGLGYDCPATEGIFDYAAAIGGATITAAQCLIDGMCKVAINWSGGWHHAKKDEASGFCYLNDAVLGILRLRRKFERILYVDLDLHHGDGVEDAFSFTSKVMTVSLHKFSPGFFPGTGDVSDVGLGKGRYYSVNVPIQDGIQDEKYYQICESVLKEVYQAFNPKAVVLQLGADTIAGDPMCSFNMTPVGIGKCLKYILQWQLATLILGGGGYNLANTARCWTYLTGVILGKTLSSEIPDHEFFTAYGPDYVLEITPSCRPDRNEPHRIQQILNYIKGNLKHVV
Test: Inhibition of recombinant human HDAC8 using Boc-L-Lys(trifluoroacetyl)-MCA as substrate by fluorogenic enzymatic assay

- Kd: 2.9 µM
Compound: O=C(CCCCCCC(=O)Nc1ccccc1)NO [VORINOSTAT]
